Usually pKi stands for the Ki on a negative log10 scale, so that one unit is a factor of ten.

Amino acid sequences for entries named in this document (tags omitted).
UniProt P23977, whole entry: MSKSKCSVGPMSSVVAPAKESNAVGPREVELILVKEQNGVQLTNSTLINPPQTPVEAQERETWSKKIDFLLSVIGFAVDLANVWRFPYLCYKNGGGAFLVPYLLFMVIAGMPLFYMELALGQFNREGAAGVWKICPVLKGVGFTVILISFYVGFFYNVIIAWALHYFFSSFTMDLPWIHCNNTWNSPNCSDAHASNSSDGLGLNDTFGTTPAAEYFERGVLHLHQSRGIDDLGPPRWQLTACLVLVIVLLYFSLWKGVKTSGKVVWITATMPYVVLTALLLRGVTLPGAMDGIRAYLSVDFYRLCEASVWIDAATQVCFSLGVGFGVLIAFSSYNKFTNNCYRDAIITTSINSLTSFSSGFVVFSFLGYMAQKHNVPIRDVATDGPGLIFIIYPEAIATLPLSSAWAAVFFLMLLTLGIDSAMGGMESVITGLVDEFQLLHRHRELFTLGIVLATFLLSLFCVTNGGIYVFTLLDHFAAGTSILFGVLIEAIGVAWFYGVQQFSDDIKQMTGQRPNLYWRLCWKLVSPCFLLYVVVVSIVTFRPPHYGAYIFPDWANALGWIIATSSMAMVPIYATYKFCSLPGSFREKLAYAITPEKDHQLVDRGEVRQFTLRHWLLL

Experimental findings from ChEMBL document CHEMBL1148277, “Synthesis and pharmacological evaluation of 3-(3,4-dichlorophenyl)-1-indanamine derivatives as nonselective ligands for biogenic amine transporters” (J Med Chem, 2004) are described below.

The structures appear in SMILES notation. pKi: −log10 of the molar value.

In the assay the target is Sodium-dependent dopamine transporter (Rattus norvegicus, UniProt P23977). Put plainly: Reuptake inhibitory activity against dopamine DA transporter.

Compound `CNC1CC(c2ccc(Cl)c(Cl)c2)c2ccccc21` (stereo unspecified) [INDATRALINE] gave a pKi of 8.70.
